Km for SAMS peptide (radiometric kinase assay, fixed ATP, no AMP) data for one substance are collected here from PMC4764975, “Probing the enzyme kinetics, allosteric modulation and activation of α1- and α2-subunit-containing AMP-activated protein kinase (AMPK) heterotrimeric complexes by pharmacological and physiological activators” (Biochemical Journal, 2016).

By UniProt entry, the sequences of proteins in these tests, tags left out.
UniProt Q13131, whole entry, chain 1 of 3: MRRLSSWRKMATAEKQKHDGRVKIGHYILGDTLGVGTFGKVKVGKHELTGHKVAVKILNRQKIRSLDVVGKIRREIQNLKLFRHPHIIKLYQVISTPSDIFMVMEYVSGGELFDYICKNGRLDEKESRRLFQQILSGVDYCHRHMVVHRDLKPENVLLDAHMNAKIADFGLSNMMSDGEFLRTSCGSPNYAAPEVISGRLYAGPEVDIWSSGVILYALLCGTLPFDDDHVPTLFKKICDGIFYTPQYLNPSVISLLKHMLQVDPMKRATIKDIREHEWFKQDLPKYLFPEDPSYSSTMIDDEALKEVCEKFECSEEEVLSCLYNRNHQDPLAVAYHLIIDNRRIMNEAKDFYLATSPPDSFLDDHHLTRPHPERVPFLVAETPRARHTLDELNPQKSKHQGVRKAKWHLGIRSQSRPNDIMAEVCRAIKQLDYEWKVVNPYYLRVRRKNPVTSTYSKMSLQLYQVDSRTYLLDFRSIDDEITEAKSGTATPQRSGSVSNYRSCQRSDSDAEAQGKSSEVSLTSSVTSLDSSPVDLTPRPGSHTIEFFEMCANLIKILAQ
UniProt P54646, whole entry, chain 1 of 3: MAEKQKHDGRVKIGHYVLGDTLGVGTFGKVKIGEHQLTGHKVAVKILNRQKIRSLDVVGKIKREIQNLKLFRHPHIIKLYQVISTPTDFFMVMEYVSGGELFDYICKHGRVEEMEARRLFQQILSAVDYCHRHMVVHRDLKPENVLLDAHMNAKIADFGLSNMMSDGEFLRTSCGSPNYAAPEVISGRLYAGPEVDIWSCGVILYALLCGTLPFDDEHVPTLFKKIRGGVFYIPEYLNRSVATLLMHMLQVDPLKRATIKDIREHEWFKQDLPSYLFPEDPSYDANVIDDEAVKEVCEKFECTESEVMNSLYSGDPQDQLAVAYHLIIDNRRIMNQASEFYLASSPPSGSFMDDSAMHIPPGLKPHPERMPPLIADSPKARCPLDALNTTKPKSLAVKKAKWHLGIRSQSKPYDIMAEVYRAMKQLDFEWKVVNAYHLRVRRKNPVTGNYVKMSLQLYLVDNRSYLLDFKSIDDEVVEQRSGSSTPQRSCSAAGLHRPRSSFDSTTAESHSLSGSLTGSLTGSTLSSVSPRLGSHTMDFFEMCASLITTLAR

The target in assay [1] is AMPK heterotrimeric complex α1β1γ1 (UniProt Q13131).
Assay [2] concerns the target AMPK heterotrimeric complex α1β2γ3 (UniProt Q13131).
Assay [3] has as its target AMPK heterotrimeric complex α2β2γ3 (UniProt P54646).

Consider SAMS peptide, for which the Km for SAMS peptide (radiometric kinase assay, fixed ATP, no AMP) in assay [1] came out at 26.7 µM; in assay [2], 37.3 µM; in assay [3], 80 µM.
